PubChem BioAssay AID602248 (The Scripps Research Institute Molecular Screening Center, 2012)
“And” between values parts separate entries of the source, which are not always exact repeats. Equal values may be shown once. The entries are a selection whose mix differs from that of the whole data set. The source made the active and inactive calls. Rule as the data show it: active = activation above about 15%; inactive = the rest.

Test: counter-screen for M1 agonists: effect in parental CHO-K1 cells (AID 602248);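 also: untransfected CHO-K1 host cells lacking M1 receptor as counterscreen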
Conditions: Fluo-8 calcium fluorescence, at 3 µM, hits give high values, scaled to maximal ATP response, vehicle zero

SMILES | activation
O=C(O)C(=O)c1ccc(N(CCCl)CCCl)cc1 | inactive: 0.86%
O=C(Nc1ccncc1[N+](=O)[O-])c1ccc([N+](=O)[O-])cc1[N+](=O)[O-] | inactive: 0.92%
O=C(COc1ccccc1)OC1CN2CCC1CC2 (stereo not given) | inactive: 1.05%
COC(=O)C1(C)COP(=O)(N2CCCC2)OC1 (stereo not given) | inactive: -0.11%
COP1(=S)c2c(C)nn(CCC#N)c2N=C(c2ccc(F)cc2)N1C (stereo not given) | inactive: 0.73%
CCC(C)N(CC(C)C)C(=S)SC(NC(C)=O)C(Cl)(Cl)Cl (stereo not given) | inactive: 0.57%
CSc1ccc(Nc2c([N+](=O)[O-])cc([N+](=O)[O-])cc2[N+](=O)[O-])cc1 | inactive: 11.1%
O=C(OC1CN2CCC1CC2)c1cccc([N+](=O)[O-])c1 (stereo not given) | inactive: 2.36%
CCOC(=O)c1ccc(NC(=O)C(C)(CCl)SC)cc1 (stereo not given) | inactive: 2.67%
COP(=O)(OC)N1CC1c1ccccc1 (stereo not given) | inactive: 0.05%
Cc1cc(SC(NC(=O)c2ccccc2)C(Cl)(Cl)Cl)nc(C(C)C)n1 (stereo not given) | inactive: 0.47%
O=C(O)C(O)c1ccc(N(CCCl)CCCl)cc1 (stereo not given) | inactive: -0.39%
CCOC(=O)Nc1ccc([As](=O)(O)O)c(O)c1 | inactive: 1.42%
C/C=C1/CC(C)C(C)(O)C(=O)OCC2CCN3CCC(OC1=O)C23 (stereo not given) | inactive: 0.72%
CC1CCNP(=O)(N(CCCl)CCCl)O1 (stereo not given) | inactive: 0.33%
Cc1cc(SC(NC=O)C(Cl)(Cl)Cl)ncn1 (stereo not given) | inactive: 1.37%
O=P(Nc1ccccn1)(c1cccc2ccccc12)c1cccc2ccccc12 | inactive: 1.86%
O=[N+]([O-])c1ccc(Nc2ccc(Oc3ccc([N+](=O)[O-])cc3[N+](=O)[O-])cc2)c([N+](=O)[O-])c1 | inactive: 0.99%
CCOC(=O)Nc1cccc([As](=O)(O)O)c1 | inactive: -0.15%
CC(Cc1ccc(O)cc1)NCC(O)c1cc(O)cc(O)c1 (stereo not given) | inactive: -0.3%
Cc1ccc(OP(=O)(Nc2ccc([N+](=O)[O-])cn2)Oc2ccc(C)cc2)cc1 | inactive: 0.85%
[N-]=[N+]=NC1CCCCC1NC(=O)c1cc([N+](=O)[O-])cc([N+](=O)[O-])c1 (stereo not given) | inactive: 0.69%
Cc1ccc2nc3c(c(C)c2c1)CC(C(Cl)Cl)S3 (stereo not given) | inactive: -1.12%
O=[N+]([O-])c1ccc(-c2cc([N+](=O)[O-])c(O)c([N+](=O)[O-])c2)cc1 | inactive: 0.39%
O=[As](O)(c1ccc(O)cc1)c1ccccc1O | inactive: 1.62%

SMILES | activation
C[As](=O)(O)c1cccc(C(=O)O)c1 | inactive: 10.6%
O=[N+]([O-])c1cc([N+](=O)[O-])c(-c2ccn[nH]2)s1 | inactive: 0.27%
O=C(OC1CN2CCC1CC2)c1cccc2[nH]cnc12 (stereo not given) | inactive: -0.26%
CCN(CC)C(=S)SC(NC=O)C(Cl)(Cl)Cl (stereo not given) | inactive: -0.01%
CC(C)NC(=O)NP(=O)(Oc1ccccc1)Oc1ccccc1 | inactive: -0.06%
ClCCSc1nnc(-c2cccnc2)o1 | inactive: 0.06%
CC(C)c1ccc(OP(=O)(Nc2ccccn2)Oc2ccccc2F)cc1 (stereo not given) | inactive: 0.12%
COC(=O)C1(C)COP(=O)(N2CCCCCC2)OC1 (stereo not given) | inactive: 1.48%
O=P1(N(CCCl)CCCl)OCCCN1CCCl (stereo not given) | inactive: 1.09%
O=P1(N(CCCl)CCCl)Nc2ccccc2N1 | inactive: 0.05%
COc1cc(I)ccc1[As](=O)(O)O | inactive: 0.48%
COc1ccc2nc(NP(=O)(c3ccccc3)c3ccccc3)sc2c1 | inactive: 2.04%
Cc1c2c(nc3ccccc13)SC(C(Cl)Cl)C2 (stereo not given) | inactive: -0.25%
Cc1cc(=O)[nH]c(N[N+](=O)[O-])n1 | inactive: 0.24%
O=C(OC1CN2CCC1CC2)C12CC3CC(CC(C3)C1)C2 (stereo not given) | inactive: 0.28%
O=[N+]([O-])c1cc(Oc2ccc([N+](=O)[O-])cc2C(F)(F)F)cc([N+](=O)[O-])c1 | inactive: 0.11%
COc1ccc(N/C(=N/P(=O)(N2CCOCC2)N2CCOCC2)N2CCOCC2)cc1 | inactive: 0.88%
O=[As](O)(c1cccc(O)c1)c1cccc(O)c1 | inactive: 0.54%
Cc1cccc(OCC(=O)OC2CN3CCC2CC3)c1 (stereo not given) | inactive: 0.25%
O=C(OC1CN2CCC1CC2)c1ccc(Cl)cc1 (stereo not given) | inactive: 0.43%
CS(=O)(=O)c1ccc(Cl)c(NC(=O)COC(=O)C(O)(c2ccccc2)c2ccccc2)c1 | inactive: 8.99%
O=[As](O)(O)c1cccnc1 | inactive: 0.92%
CCOP(=O)(Nc1cccc2ccccc12)OCC | inactive: 1.71%
COc1cc(C2NCCC3(OCCO3)C2(C)C)cc(OC)c1OC (stereo not given) | inactive: -0.45%
Nc1cccc2c([As](=O)(O)O)cccc12 | inactive: 8.52%

SMILES | activation
Cc1ccc(NCCc2c([N+](=O)[O-])cc([N+](=O)[O-])cc2[N+](=O)[O-])cc1 | inactive: -0.74%
CCCOP(=S)(Nc1nc(N)cc(=O)[nH]1)OCCC | inactive: 1.02%
C[C@H]1C(=O)O[C@@H]2CCN3CC=C(COC(=O)[C@](C)(O)[C@]1(C)O)[C@H]23 | inactive: 1.19%
O=C(O)COc1ccc([As](=O)(O)O)cc1[N+](=O)[O-] | inactive: -0.78%
Nc1ccccc1[As](=O)(O)c1ccccc1 | inactive: 0.69%
O=P(Nc1nccs1)(c1ccccc1)c1nc2ccccc2s1 (stereo not given) | inactive: 0.92%
O=P(Nc1nccs1)(Oc1ccccc1)Oc1ccccc1 | inactive: 0.55%
CCOP1(=S)c2c(C)nn(CCC#N)c2N=C(c2ccccc2F)N1C (stereo not given) | inactive: 1.09%
CS(=O)(=O)c1cc([N+](=O)[O-])c2no[n+]([O-])c2c1 | inactive: 0.25%
CCOP1(=S)c2c(C)nn(CCC#N)c2N=C(c2ccc(F)cc2)N1C (stereo not given) | inactive: 0.29%
CN(C(=O)Cc1ccccc1)[C@@H]1CC[C@]2(CCCO2)C[C@H]1N1CCCC1 | inactive: -0.05%
N#CCCN(C(=O)COC(=O)C(O)(c1ccccc1)c1ccccc1)c1ccc(F)cc1 | inactive: 3.03%
CN(C(=O)Cc1ccc(Cl)c(Cl)c1)[C@H]1CC[C@@]2(CCCO2)C[C@@H]1N1CCCC1 | inactive: 0.57%
CN(C)C(=O)c1cc([N+](=O)[O-])cc2c1-c1c(cc([N+](=O)[O-])cc1[N+](=O)[O-])C2=O | inactive: 1.54%
O=[N+]([O-])c1ccc2c(c1)nnn2O | inactive: 0.85%
NC(=O)Nc1ccc([As](=O)(O)O)cc1 | inactive: 0.38%
COc1ccc(CC(C)NCC(O)c2ccc(O)c(NC=O)c2)cc1 (stereo not given) | inactive: 0.22% and inactive: -0.06%
CCCC1OP(=O)(Nc2ccccc2)OCC1CC (stereo not given) | inactive: 3.31%
O=C(/C=C/c1ccccc1)OC1CN2CCC1CC2 (stereo not given) | inactive: 6.57%
Cc1ccc(C(=O)OC2CN3CCC2CC3)cc1 (stereo not given) | inactive: 1.24%
CC1CCC(C(C)C)C(OP(=O)(Nc2ccccn2)c2ccccc2)C1 (stereo not given) | inactive: 5.19%
Cc1nn(-c2ccccc2)c2c1P(=O)(N1CCOCC1)N(C)C(c1ccccc1)=N2 (stereo not given) | inactive: 0.17%
Nc1cccc([As](=O)(O)c2ccccc2)c1 | inactive: -0.05%
NS(=O)(=O)c1cccc(NC(=O)COC(=O)C(O)(c2ccccc2)c2ccccc2)c1 | inactive: 0.52%
O=P1(Nc2ccc(Br)cn2)COc2ccccc2OC1 | inactive: 1.87%

SMILES | activation
O=[As](O)(c1cccs1)c1cccs1 | inactive: -0.53%
Cc1ccc(OCC(=O)OC2CN3CCC2CC3)cc1 (stereo not given) | inactive: 1.51%
Cc1ccc(S(=O)(=O)N(CCCN)CCCc2c(C)nc(N)[nH]c2=O)cc1 | inactive: 0.26%
O=P1(Nc2ncccn2)COc2ccccc2OC1 | inactive: 0.52%
CC(C)(C)C(=O)NC(Sc1ncccn1)C(Cl)(Cl)Cl (stereo not given) | inactive: 0.22%
Clc1n[nH]nc1-c1nn[nH][15n]1 | inactive: 0.02%
O=P1(N(CCCl)CCCl)NCCC(C(F)(F)F)O1 (stereo not given) | inactive: 0.35%
CCOP(=O)(NC(=NC(C)c1ccccc1)NC(C)c1ccccc1)OCC (stereo not given) | inactive: -0.38%
CCC1=CC2Cc3nc4ccc(Cl)cc4c(N)c3C(C1)C2 (stereo not given) | inactive: 2.09%
O=P1(Nc2ccccn2)COc2ccccc2OC1 | inactive: -0.29%
CN(CCCl)Cc1cc(Cl)c(NC2=NCCN2)c(Cl)c1 | inactive: 0.12%
CCOP(=O)(Nc1ccc(C)cn1)OCC | inactive: 1.96%
CN(C(=O)Cc1ccc(Cl)c(Cl)c1)[C@@H]1CCCC[C@H]1N1CCCC1 | inactive: -0.02%
CC(C)/C=N\N=C(\N)N[N+](=O)[O-] | inactive: 0.4%
CC1(CBr)Cn2c(nc3ccccc3c2=O)S1 (stereo not given) | inactive: 4.71%
COc1ccccc1CNC(=O)COC(=O)C(O)(c1ccccc1)c1ccccc1 | inactive: 0.36%
c1nnnn1CCn1cnnn1 | inactive: 0.28%
O=P(Nc1nccs1)(c1ccccc1)c1ccccc1 | inactive: 0.28%
CC(C)C(=O)NC(Sc1ccccc1)C(Cl)(Cl)Cl (stereo not given) | inactive: -0.72%
COc1ccc(C[C@H](C)NC[C@@H](O)c2ccc(O)c(NC=O)c2)cc1 | inactive: 0.06%
C[C@H]1OP(=O)(Oc2ccccc2)[C@H](O)[C@H](O)[C@H]1N=[N+]=[N-] (stereo not given in full) | inactive: 0.26%
O=P(Nc1nc2ccccc2s1)(c1ccccc1)c1ccccc1 | inactive: 1.45%
O=P(Nc1ccccn1)(c1ccc(Br)cc1)c1ccc(Br)cc1 | inactive: -0.17%
Nc1ccc(CCCCOc2ccccc2)cc1 | inactive: 2.11%
COc1ccc(N)c([N+](=O)[O-])c1[N+](=O)[O-] | inactive: 0.77%
